Reference: article PMC10480161, “Identification of potent and selective N-myristoyltransferase inhibitors of Plasmodium vivax liver stage hypnozoites and schizonts” (Nature Communications, 2023)

Chains of the proteins cited; added tags and fusions are not shown.
UniProt A5K1A2, entry or part of it: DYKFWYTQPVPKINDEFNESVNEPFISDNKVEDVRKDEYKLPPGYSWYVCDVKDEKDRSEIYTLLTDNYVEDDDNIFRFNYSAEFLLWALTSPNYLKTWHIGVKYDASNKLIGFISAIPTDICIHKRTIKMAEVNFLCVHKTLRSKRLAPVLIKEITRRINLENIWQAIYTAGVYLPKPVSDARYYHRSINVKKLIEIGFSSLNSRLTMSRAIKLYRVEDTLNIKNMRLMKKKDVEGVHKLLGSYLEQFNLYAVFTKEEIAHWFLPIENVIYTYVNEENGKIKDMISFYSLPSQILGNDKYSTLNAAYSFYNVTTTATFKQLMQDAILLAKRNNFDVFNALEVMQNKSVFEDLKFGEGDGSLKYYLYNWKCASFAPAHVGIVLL

Target: PvNMT (Plasmodium vivax, UniProt A5K1A2)
Assay: NMT activity assay (CPM detection of free CoA), PvNMT
Details: enzyme selectivity, HsNMT IC50/PvNMT IC50

In the case of `Cc1nn(C)c(C)c1CCOc1cccnc1-c1cccc(N2CCNCC2)c1` [Compound 12b], the SI is reported as 259 and 259.2.

Several values for one entry are separate records, joined by “and”; a condition that tells them apart may be missing. Equal values may be shown once.
